Patent publication US20250026723A1, “Cannabinoid Receptor Modulating Compounds” (THE UNITED STATES OF AMERICA, as represented by the …, priority 2021, published 2025)

Protein sequences, listed by entry. Tags and fused reporters are not part of them.
UniProt P21554, whole entry: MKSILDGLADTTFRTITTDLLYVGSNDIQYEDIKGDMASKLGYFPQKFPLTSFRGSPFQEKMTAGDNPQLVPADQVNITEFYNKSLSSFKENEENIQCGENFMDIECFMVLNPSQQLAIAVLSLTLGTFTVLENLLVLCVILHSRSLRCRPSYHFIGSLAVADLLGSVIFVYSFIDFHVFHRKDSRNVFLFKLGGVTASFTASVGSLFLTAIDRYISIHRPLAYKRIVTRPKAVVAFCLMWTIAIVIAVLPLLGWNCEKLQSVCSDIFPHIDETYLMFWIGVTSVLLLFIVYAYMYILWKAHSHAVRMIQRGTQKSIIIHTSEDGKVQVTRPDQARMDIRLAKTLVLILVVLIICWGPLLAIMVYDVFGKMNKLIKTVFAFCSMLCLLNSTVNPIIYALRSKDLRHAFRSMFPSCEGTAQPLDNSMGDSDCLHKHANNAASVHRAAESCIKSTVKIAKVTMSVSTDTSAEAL

Columns and labels:
[1] = target: T1, CB1 (Homo sapiens (Human), UniProt P21554); test: CB1 antagonism assay, green (β-Arrestin) NOMAD biosensor, MPXNomad-CB1 HEK293 cells; conditions: read-out: β-Arrestin IC50
[2] = target: cannabinoid receptor 1 (CB1R) (Homo sapiens (Human), UniProt P21554); test: CB1R binding affinity (inhibition constant Ki); conditions: read-out: CB1R Ki
[3] = target: T1, CB1; test: CB1 antagonism assay, red (cAMP) NOMAD biosensor, MPXNomad-CB1 HEK293 cells; conditions: read-out: cAMP IC50

Compound `O=S(=O)(N=C([Se]CC1CC1)N1CC(c2ccccc2)C(c2ccc(Cl)cc2)=N1)c1ccc(C(F)(F)F)cc1` (stereo not shown) has an IC50 [1] of 28 nM, a Ki [2] of 12 nM and an IC50 [3] of 23 nM.
In the case of `COCCSC(=NS(=O)(=O)c1ccc(C#N)cc1)N1CC(c2ccccc2)C(c2ccc(Cl)cc2)=N1` (stereo not shown), the IC50 [1] is reported as 1160 nM and the IC50 [3] is reported as 1690 nM.
For `N#Cc1ccc(S(=O)(=O)N=C([Se]CC2CC2)N2CC(c3ccccc3)C(c3ccc(Cl)cc3)=N2)cc1` (stereo not shown), the IC50 [1] was 114 nM and the IC50 [3] was 56 nM.
